The experiment deals with recombinant human mGluR4a receptors (Homo sapiens, UniProt Q14833). Kind of experiment: mGluR4 assay on HEK-expressing human mGluR4: fluorescent cell based Ca2+ mobilization assay (FLIPR). The note with it: read-out: Ca^2+ Flux (mean EC50); HEK-293 cells expressing hmGluR4; enhancement of EC25 glutamate response; mean of at least three independent experiments in duplicate. From the text:
mGluR4 Assay on HEK-Expressing Human mGluR4
The compounds of the present invention are positive allosteric modulators of mGluR4 receptor. Their activity was examined on recombinant human mGluR4a receptors by detecting changes in intracellular Ca^2+ concentration, using the fluorescent Ca^2+-sensitive dye Fluo4-(AM) and a Fluorometric Imaging Plate Reader (FLIPR, Molecular Devices, Sunnyvale, Calif.).
The cDNA encoding the human metabotropic glutamate receptor (hmGluR4), (accession number NM 000841.1, NCBI Nucleotide database browser), was subcloned into an expression vector containing also the hygromycin resistance gene. In parallel, the cDNA encoding a G protein allowing redirection of the activation signal to intracellular calcium flux was subcloned into a different expression vector containing also the puromycin resistance gene. Transfection of both these vectors into HEK293 cells with PolyFect reagent (Qiagen) according to supplier's protocol, and hygromycin and puromycin treatment allowed selection of antibiotic resistant cells which had integrated stably one or more copies of the plasmids. […]
After 10 s of basal fluorescence recording, various concentrations of the compounds of the invention were added to the cells. Changes in fluorescence levels were first monitored for 180 s in order to detect any agonist activity of the compounds. […]

Protein sequences, listed by entry. Tags and fused reporters are not part of them. Residues count along the entry.
UniProt Q14833, 33-912 limits assumed: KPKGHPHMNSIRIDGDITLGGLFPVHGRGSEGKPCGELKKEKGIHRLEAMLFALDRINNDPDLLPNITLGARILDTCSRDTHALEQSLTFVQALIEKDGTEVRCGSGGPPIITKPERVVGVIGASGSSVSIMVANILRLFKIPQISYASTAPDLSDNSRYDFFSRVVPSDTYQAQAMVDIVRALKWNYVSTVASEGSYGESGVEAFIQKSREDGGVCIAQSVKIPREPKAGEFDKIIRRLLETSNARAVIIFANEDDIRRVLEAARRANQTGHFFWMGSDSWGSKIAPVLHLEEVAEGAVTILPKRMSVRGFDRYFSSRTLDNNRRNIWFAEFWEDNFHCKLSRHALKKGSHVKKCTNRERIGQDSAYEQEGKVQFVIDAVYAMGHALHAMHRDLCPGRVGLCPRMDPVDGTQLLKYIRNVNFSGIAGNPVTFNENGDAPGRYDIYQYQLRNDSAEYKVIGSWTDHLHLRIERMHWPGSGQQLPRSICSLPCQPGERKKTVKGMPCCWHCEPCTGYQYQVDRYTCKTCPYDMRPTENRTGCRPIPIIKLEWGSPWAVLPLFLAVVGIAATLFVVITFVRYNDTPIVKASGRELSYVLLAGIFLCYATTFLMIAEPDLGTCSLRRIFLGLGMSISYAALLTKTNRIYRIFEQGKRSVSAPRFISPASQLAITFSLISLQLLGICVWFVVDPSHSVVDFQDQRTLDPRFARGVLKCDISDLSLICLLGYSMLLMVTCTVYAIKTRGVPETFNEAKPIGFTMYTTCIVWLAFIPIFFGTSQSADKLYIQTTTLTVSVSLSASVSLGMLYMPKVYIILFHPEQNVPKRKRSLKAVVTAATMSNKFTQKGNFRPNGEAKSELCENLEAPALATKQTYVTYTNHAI

For `COCCCN1CCc2sc(Nc3ncc(F)cn3)nc2-c2cn[nH]c21`, the 50% effective concentration (EC50) is below 100 nM.
As for `Cc1cccc(Nc2nc3c(s2)CCN(Cc2cc(C)on2)c2[nH]ncc2-3)n1`, the concentration for a half-maximal effect (EC50) is 100 to 1000 nM.

One may read the EC50 as the concentration needed to bring the measured effect to its halfway point.
